Test results from article doi:10.1101/2020.11.09.375162v1 (biorxiv, 2020).

Amino acid sequences for entries named in this document (tags omitted).
UniProt P47936, whole entry: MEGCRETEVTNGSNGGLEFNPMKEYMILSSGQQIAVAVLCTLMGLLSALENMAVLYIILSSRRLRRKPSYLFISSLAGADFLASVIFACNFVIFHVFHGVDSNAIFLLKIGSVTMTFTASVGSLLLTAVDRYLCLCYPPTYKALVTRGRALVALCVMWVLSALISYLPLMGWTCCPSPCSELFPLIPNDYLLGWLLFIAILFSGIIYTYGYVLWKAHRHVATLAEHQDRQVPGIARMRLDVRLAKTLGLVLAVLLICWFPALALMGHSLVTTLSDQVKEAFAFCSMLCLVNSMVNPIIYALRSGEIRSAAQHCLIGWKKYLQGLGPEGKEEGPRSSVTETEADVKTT
UniProt P34972, whole entry: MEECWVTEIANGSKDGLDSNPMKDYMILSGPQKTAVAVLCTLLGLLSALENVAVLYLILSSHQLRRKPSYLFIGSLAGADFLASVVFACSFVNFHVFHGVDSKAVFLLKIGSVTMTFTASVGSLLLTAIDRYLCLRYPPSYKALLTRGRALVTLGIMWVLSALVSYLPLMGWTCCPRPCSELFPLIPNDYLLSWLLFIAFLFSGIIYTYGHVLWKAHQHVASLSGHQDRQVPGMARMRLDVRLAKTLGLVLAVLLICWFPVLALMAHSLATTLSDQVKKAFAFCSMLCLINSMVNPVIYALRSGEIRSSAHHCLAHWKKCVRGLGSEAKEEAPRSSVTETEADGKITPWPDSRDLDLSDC
UniProt P21554, whole entry: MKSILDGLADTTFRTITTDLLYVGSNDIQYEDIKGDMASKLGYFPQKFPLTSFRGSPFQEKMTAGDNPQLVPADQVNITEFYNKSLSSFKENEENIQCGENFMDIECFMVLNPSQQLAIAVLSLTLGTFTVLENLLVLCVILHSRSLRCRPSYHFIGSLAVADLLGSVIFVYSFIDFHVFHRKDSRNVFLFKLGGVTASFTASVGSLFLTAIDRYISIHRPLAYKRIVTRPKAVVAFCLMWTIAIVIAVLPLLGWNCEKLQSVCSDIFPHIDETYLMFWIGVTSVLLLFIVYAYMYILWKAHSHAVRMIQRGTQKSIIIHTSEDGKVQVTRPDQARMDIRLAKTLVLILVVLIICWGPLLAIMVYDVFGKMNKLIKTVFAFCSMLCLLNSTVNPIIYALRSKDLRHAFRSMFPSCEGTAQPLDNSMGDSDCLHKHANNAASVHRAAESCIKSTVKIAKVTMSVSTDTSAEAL

Experiments:
[1] = target: T1, mouse CB2 receptor (mCB2) (Mus musculus, UniProt P47936); assay: [3H]-CP55940 competition, membranes; type: binding
[2] = target: human CB2 receptor (hCB2) (Homo sapiens, UniProt P34972); assay: [3H]-CP55940 competition, membranes; type: binding
[3] = target: T2, human CB1 receptor (hCB1) (Homo sapiens, UniProt P21554); assay: cAMP assay, CHO cells; type: cell-based
[4] = target: T2, human CB1 receptor (hCB1); assay: [3H]-CP55940 competition, membranes; type: binding
[5] = target: T1, mouse CB2 receptor (mCB2); assay: cAMP assay, CHO cells; type: cell-based

| Structure (SMILES) | pKi [1] | pKi [2] | cAMP pEC50 [3] | pKi [4] | cAMP pEC50 [5] |
| --- | --- | --- | --- | --- | --- |
| CC(C)(C)C(NC(=O)c1cc(OCC2CC2)c(C2CC2)cn1)c1nccs1 (centres unmarked) | 9.21 | 7.65 | < 5 | – | – |
| CC1(F)CN(c2ccc(C(=O)N3CC(F)(F)C[C@H]3C(N)=O)nc2OCC2CC2)C1 | – | – | – | < 5 | < 5 |
